Key:
[1] = target: CDK7 (Homo sapiens, UniProt P50613); assay: CDK7 kinase activity, Adapta kinase assay (Life Technologies); conditions: read-out: CDK7 Inhibition (IC50); Adapta kinase assay at Life Technologies; 10 μM down to 0.514 nM, 3-fold serial dilutions
[2] = tested on: A673 cells; assay: Inhibition of proliferation of A673 cells (CyQUANT, 72 hour); conditions: read-out: A673 IC50, 72 hour proliferation
Experimental: A673 cells are a cell line derived from human muscle Ewing's sarcoma. Representative compounds of the invention were tested at different concentrations (from 4 μM to 126.4 pM; 0.5 log serial dilutions) for their ability to inhibit the proliferation of A673 cells. Known CDK inhibitors flavopiridol and triptolide were used as positive controls. Cells were grown in Dulbecco's Modified Eagle's Medium, +10% FBS+1 mM Sodium Pyruvate. The cells were cultured at 37° C. in a humidified chamber in the presence of 5% CO2. Proliferation assays were conducted over a 72 hour time period. CyQUANT® (Life Technologies, Chicago, Ill. USA) was used to assess the anti-proliferative effects of the compounds following manufacturer's directions and utilizing the reagents supplied with the CyQUANT® kit. In this table, “A” represents an IC50 of less than 500 nM; “B” an IC50 of between 500 nM and 5 μM; and “C” an IC50 of greater than 5 μM.

Sequences of proteins named here, by UniProt entry; tags and fusion partners are left off.
UniProt P50613, whole entry: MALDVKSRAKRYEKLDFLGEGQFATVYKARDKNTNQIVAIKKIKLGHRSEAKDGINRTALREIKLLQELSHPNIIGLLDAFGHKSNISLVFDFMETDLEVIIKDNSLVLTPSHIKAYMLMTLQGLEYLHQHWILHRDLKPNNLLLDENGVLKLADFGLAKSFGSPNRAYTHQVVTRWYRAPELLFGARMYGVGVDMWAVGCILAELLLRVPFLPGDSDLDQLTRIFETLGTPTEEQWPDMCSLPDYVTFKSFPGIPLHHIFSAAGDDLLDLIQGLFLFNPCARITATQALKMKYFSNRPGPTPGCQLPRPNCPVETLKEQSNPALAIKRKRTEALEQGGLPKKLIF
UniProt P51946, whole entry partner: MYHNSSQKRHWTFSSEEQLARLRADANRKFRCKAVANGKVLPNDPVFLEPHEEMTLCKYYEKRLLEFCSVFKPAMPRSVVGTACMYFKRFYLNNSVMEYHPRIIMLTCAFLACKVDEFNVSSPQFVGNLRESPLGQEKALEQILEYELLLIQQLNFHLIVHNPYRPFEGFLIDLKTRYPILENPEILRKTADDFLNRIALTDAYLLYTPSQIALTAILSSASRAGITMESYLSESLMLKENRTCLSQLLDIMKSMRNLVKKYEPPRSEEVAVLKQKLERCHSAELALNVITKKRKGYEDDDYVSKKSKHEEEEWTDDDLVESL
UniProt P51948, whole entry partner: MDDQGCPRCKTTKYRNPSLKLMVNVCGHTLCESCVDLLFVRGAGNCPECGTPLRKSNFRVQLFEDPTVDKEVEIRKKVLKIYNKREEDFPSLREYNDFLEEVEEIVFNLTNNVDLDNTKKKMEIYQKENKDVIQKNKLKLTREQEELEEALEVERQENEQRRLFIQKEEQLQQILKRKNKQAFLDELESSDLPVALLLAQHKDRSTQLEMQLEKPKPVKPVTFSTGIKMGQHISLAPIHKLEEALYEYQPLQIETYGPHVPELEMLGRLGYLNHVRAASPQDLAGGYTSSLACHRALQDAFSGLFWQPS

[3] = target: CDK7/Cyclin H/MAT1 trimeric complex (Homo sapiens, UniProt P50613); assay: CDK7 kinase assay, Caliper/LabChip EZ Reader (Biortus Biosciences); conditions: read-out: CDK7 Inhibition (IC50), CDK7/Cyclin H/MAT1 10 nM, ATP 2 mM, FAM-CDK7tide 2 μM, 30 min incubation

| Compound | IC50 [1] [nM] | IC50 [2] [nM] | IC50 [3] [nM] |
| --- | --- | --- | --- |
| C=CC(=O)NC1CCN([C@H]2CCC[C@@H](Nc3ncc(Cl)c(-c4c[nH]c5ccccc45)n3)C2)CC1 | 100 to 1000 | < 500 | < 100 |
| CN(C)C/C=C/C(=O)NC1CCN([C@H]2CCC[C@@H](Nc3ncc(Cl)c(-c4c[nH]c5ccccc45)n3)C2)CC1 | 100 to 1000 | < 500 |  |
| O=C(/C=C/CN1CCOCC1)Nc1ccc(C(=O)N[C@H]2CCC[C@@H](Nc3ncc(Cl)c(-c4c[nH]c5ccccc45)n3)C2)nc1 | < 100 | < 500 | 100 to 1000 |
| C=CC(=O)N1CCCC(CN[C@H]2CCC[C@@H](Nc3ncc(Cl)c(-c4c[nH]c5ccccc45)n3)C2)C1 (some centres unmarked) | 100 to 1000 | < 500 | < 100 |
| C=CC(=O)N1CCC(CN[C@H]2CCC[C@@H](Nc3ncc(Cl)c(-c4c[nH]c5ccccc45)n3)C2)C1 (some centres unmarked) | 100 to 1000 | < 500 |  |
| CN(C)C/C=C/C(=O)N1CCC2(CC1)CN([C@@H]1CCC[C@@H](Nc3ncc(Cl)c(-c4c[nH]c5ccccc45)n3)C1)C2 |  | < 500 | < 100 |
| C=CC(=O)N1CCC(CN[C@H]2CCC[C@@H](Nc3ncc(C(F)(F)F)c(-c4c[nH]c5ccccc45)n3)C2)CC1 |  | < 500 | < 100 |
| CN(C)C/C=C/C(=O)N1CCN([C@H]2CCC[C@@H](Nc3ncc(Cl)c(-c4nsc5ccccc45)n3)C2)CC1 |  | > 5000 | 100 to 1000 |
| CN(C)C/C=C/C(=O)N1CCN([C@@H]2CCC[C@@H](Nc3ncc(Cl)c(-c4c[nH]c5ccccc45)n3)C2)CC1C(F)(F)F (some centres unmarked) |  | < 500 | 100 to 1000 |
| C=CC(=O)Nc1ccc(C(=O)N[C@H]2CCC[C@@H](Nc3ncc(Cl)c(-c4cccc5c4ccn5C)n3)C2)nc1 |  | < 500 | 100 to 1000 |
| C=CC(=O)N1CCC(CN[C@@]2(C)CCC[C@@H](Nc3ncc(Cl)c(-c4cnn5ccccc45)n3)C2)CC1 |  | < 500 | < 100 |
| C=CC(=O)N1CCC(N2CCC[C@@H](Nc3ncc(Cl)c(-c4c[nH]c5ccccc45)n3)C2)CC1 |  | < 500 | < 100 |
| C=CC(=O)N1CCC2(C1)CN([C@@H]1CCC[C@@H](Nc3ncc(Cl)c(-c4c[nH]c5ccccc45)n3)C1)C2 |  | < 500 | < 100 |
| C=CC(=O)N1CCC(F)(CN[C@H]2CCC[C@@H](Nc3ncc(Cl)c(-c4c[nH]c5ccccc45)n3)C2)CC1 |  | < 500 | < 100 |
| C=CC(=O)N1CC2(CCN([C@H]3CCC[C@@H](Nc4ncc(Cl)c(-c5c[nH]c6ccccc56)n4)C3)C2)C1 |  | < 500 | 100 to 1000 |
| C=CC(=O)N1CCC(CN[C@H]2CCC[C@@H](Nc3ncc(Cl)c(-c4n[nH]c5ccccc45)n3)C2)CC1 |  | < 500 | 100 to 1000 |
| C=CC(=O)N1CCN([C@H]2CCC[C@@H](Nc3ncc(Cl)c(-c4c[nH]c5ccc(F)cc45)n3)C2)CC1 |  | < 500 | < 100 |
| C=CC(=O)N1CCC2(CC1)CN([C@H]1CCC[C@@H](Nc3ncc(Cl)c(-c4c[nH]c5ccccc45)n3)C1)C2 |  | < 500 | 100 to 1000 |
| CN(C)C/C=C/C(=O)N1CCC(CN[C@H]2CCC[C@@H](Nc3ncc(C(F)(F)F)c(-c4c[nH]c5ccccc45)n3)C2)C1 (some centres unmarked) |  | < 500 | < 100 |
| C=CC(=O)N1CCN([C@H]2CCC[C@@H](Nc3ncc(Cl)c(-c4nsc5ccccc45)n3)C2)CC1 |  | < 500 | 100 to 1000 |
| C=CC(=O)N1CC2(CCN([C@@H]3CCC[C@@H](Nc4ncc(Cl)c(-c5c[nH]c6ccccc56)n4)C3)C2)C1 |  | < 500 | < 100 |
| C=CC(=O)N1CCC(N[C@H]2CCC[C@@H](Nc3ncc(Cl)c(-c4c[nH]c5ccccc45)n3)C2)CC1 |  | < 500 | < 100 |
| C=CC(=O)N1CCN([C@H]2CCC[C@@H](Nc3ncc(Cl)c(-c4csc5ccccc45)n3)C2)CC1 |  | < 500 | 100 to 1000 |
| CCc1cnc(N[C@@H]2CCC[C@H](NCC3CCN(C(=O)/C=C/CN(C)C)C3)C2)nc1-c1c[nH]c2ccccc12 (some centres unmarked) |  | 500 to 5000 | < 100 |
| C=CC(=O)N1CCN([C@H]2CCC[C@@H](Nc3ncc(Cl)c(-c4c[nH]c5c(C)cccc45)n3)C2)CC1 |  | < 500 | < 100 |
| C=CC(=O)N[C@H]1CCCN([C@H]2CCC[C@@H](Nc3ncc(Cl)c(-c4c[nH]c5ccccc45)n3)C2)C1 |  | < 500 | < 100 |
| CN(C)C/C=C/C(=O)N1CC[C@@H](N(C)[C@H]2CCC[C@@H](Nc3ncc(Cl)c(-c4c[nH]c5ccccc45)n3)C2)C1 |  | < 500 | < 100 |
| C=CC(=O)NC1CCN([C@@H]2CCC[C@@H](Nc3ncc(Cl)c(-c4c[nH]c5ccccc45)n3)C2)CC1 | < 100 | < 500 |  |

From patent US10106526B2, “Inhibitors of cyclin-dependent kinase 7 (CDK7)” (SYROS PHARMACEUTICALS, INC., priority 2014, dated 2018)
